From PMC10602570, “A Bioresponsive Genetically Encoded Antimicrobial Crystal for the Oral Treatment of Helicobacter Pylori Infection” (2023) come the findings set out here.

The assay addresses Cry3Aa‐MIIA(D45E) N‐terminal fragment crystals (Cry3Aa‐MIIANt*) (Bacillus thuringiensis | Vibrio coralliilyticus (printed: Vibrio coralliilyticu)). The assay is described as follows: co-sedimentation.

On to “cleaved MIIA(D45E) C‐terminal‐GFP fragment (MIIACt‐GFP) (domain or fragment)”, for which the percent released after 48 h was 20%.
